The target in one experiment is Hex A (Homo sapiens, UniProt P06865+P07686). The experiment in a line: Hex A inhibition (IC50 from dose response curves of Hex A residual activity).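 Also: remaining Hex A enzyme activity recorded across rising inhibitor doses, with dose response curves run at pH 6.5 and again at pH 4.5.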
A further experiment deals with T1, HexA wt (Homo sapiens, UniProt P06865+P07686).
T1 construct: endogenous in cells; host or cells: normal fibroblasts (HexA isozyme enriched from them)
The experiment in a line: Inhibition of HexA enriched from normal fibroblasts. It counts as biochemical. The following applies: pH 4.5.

The chains behind the UniProt entries cited, without tags or fusion partners. Where a name states a change or a piece, a line headed by the entry shows the natural chain unless it says otherwise. A line that says so, or that is headed by a name, gives the form on record, which may keep a tag or linker. Residues count along the entry.
UniProt P06865, 89-529: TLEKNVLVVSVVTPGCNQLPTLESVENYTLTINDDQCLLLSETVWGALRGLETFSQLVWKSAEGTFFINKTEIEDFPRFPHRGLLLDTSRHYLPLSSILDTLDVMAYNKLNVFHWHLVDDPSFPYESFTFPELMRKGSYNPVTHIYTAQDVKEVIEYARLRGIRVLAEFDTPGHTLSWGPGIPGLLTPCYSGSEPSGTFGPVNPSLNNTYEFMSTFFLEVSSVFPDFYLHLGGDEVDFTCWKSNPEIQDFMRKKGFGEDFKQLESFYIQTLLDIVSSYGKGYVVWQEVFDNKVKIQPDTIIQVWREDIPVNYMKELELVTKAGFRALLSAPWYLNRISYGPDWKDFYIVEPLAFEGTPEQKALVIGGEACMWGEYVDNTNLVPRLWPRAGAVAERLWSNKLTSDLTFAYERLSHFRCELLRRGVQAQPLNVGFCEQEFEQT
UniProt P06865, other isoform, or with tags, fused parts or gaps: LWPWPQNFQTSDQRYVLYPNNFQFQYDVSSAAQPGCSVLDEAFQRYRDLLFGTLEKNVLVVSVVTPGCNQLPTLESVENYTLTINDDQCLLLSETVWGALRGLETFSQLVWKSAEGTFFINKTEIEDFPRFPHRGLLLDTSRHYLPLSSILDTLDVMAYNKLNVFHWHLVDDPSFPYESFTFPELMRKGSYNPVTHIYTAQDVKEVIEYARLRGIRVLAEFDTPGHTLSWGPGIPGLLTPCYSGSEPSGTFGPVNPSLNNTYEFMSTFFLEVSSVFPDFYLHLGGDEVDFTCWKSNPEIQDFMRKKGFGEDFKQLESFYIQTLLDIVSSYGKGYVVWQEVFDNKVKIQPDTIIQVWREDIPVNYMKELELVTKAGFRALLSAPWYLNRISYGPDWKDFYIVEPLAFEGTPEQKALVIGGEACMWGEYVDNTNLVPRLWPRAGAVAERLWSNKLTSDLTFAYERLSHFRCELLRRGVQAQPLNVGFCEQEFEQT
UniProt P07686, 315-556 limits assumed: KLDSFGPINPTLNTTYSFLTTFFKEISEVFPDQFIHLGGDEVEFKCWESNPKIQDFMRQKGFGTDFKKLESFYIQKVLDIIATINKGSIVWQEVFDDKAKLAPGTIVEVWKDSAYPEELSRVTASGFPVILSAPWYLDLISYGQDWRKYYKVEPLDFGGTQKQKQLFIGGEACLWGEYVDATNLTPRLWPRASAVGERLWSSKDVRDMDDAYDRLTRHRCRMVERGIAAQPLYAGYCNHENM
UniProt P07686, 122-311 limits assumed: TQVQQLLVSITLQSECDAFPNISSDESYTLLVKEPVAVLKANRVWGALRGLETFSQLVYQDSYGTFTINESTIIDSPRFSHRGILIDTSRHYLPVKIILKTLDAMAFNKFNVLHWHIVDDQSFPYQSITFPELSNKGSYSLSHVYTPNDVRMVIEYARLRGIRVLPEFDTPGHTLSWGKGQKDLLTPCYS
UniProt P07686, other isoform, or with tags, fused parts or gaps: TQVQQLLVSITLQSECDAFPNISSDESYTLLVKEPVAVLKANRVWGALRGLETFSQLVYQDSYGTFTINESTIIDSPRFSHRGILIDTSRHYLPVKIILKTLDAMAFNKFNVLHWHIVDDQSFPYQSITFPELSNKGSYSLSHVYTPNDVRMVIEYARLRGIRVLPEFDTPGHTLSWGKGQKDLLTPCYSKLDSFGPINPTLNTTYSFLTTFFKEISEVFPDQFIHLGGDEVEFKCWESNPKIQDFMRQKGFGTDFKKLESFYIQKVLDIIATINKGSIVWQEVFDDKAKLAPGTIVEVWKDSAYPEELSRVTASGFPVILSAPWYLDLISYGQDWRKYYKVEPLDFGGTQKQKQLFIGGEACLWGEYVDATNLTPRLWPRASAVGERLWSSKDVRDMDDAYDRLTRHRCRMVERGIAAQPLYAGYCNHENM

The target of a further experiment is HexB (Homo sapiens, UniProt P07686). The experiment in a line: HexB inhibition (purified isozyme). Type of experiment: biochemical.
A further experiment addresses mutant Hex A (Homo sapiens, UniProt P06865+P07686). It counts as cell-based. The following applies: Hex A rescue, determined from graphs of FIGS. 5-7. The protocol: Using the graphs of FIGS. 5-7, the EC50 values for Hex A rescue were determined as well as the maximum increase and range of increase in Hex A activity. These values are tabulated in Table 2, together with the IC50 values for Hex A inhibition that were determined in Example 3.

Where two headings read alike, the source gives them in different places.

The term IC50 denotes the concentration needed to halve the response being measured. What is called EC50 is the midpoint of the concentration-response curve. Read a high EC50 as weaker potency. Consider `CCc1nc(N)nc(N)c1-c1ccc(Cl)cc1` [PYR, Pyrimethamine, reference compound], for which the IC50 against Hex A (IC50 (μM ± Err), Hex A inhibition, values determined in Example 3, pH not given) was 11 ± 1 µM; on Hex A (IC50 (μM), without error, pH not stated) it was 10.8 µM; on Hex A (IC50, pH 4.5, NINDS library screen), around 8 µM; on Hex A (read-out: IC50 HexA pH 7, purified HexA, pH 7), 3.1 µM; on Hex A (without error, pH not stated), 14 µM; against HexA wt, 14 µM. For the same compound, the IC50 is 9.1 µM on HexB (pH 4.5, 1.6 mM substrate, read-out: IC50 HexB pH 4.5) and 4.5 µM at HexB (pH 7, read-out: IC50 HexB pH 7). For the same compound, the results for the EC50 at mutant Hex A and on mutant Hex A (listed as PYR (vsa7)) were 8.11 µM and 3.62 µM, respectively.

The values above are taken from patent publication US20150272951A1, “COMPOUNDS FOR THE TREATMENT OF LYSOSOMAL STORAGE DISEASES” (The Hospital for Sick Children, priority 2010, published 2015).
